Measured values published in IntAct's records for PubMed 12878161.

B1: Tripartite motif-containing protein 5 (Homo sapiens), Q9C035-4 (parent)
chain: MASGILVNVKEEVTCPICLELLTQPLSLDCGHSFCQACLTANHKKSMLDKGESSCPVCRISYQPENIRPNRHVANIVEKLREVKLSPEGQKVDHCARHGEKLLLFCQEDGKVICWLCERSQEHRGHHTFLTEEVAREYQVKLQAALEMLRQKQQEAEELEADIREEKASWKTQIQYDKTNVLADFEQLRDILDWEESNELQNLEKEEEDILKSLTNSETEMVQQTQSLRELISDLEHRLQGSVMELLQGVDGVIKRTENVTLKKPETFPKNQRRVFRAPDLKGMLEVFRELTDVRRYWGWSAMARSRFTATSTSQIQAILLPQPPK

Variants of: B1
Conditions: with ub2d2_human UBE2D2, P62837

Question: How did the “effect of a mutation on the interaction” value turn out when C15A;C18A was run?
Answer: decreasing interaction
